These results are taken from publication PMC5464333, “The binding orientations of structurally-related ligands can differ; A cautionary note” (Neuropharmacology, 2017).

Sequences of proteins named here, by UniProt entry; tags and fusion partners are left off. A change or cut given only in a name is not applied to a line headed by its entry. A line that says so, or that is headed by a name, gives the form on record, which may keep a tag or linker.
α7 nACh receptor (UniProt P22770+P23979, M226I/T225I), UniProt P22770+P23979, fused P22770:T225I/P22770:M226I: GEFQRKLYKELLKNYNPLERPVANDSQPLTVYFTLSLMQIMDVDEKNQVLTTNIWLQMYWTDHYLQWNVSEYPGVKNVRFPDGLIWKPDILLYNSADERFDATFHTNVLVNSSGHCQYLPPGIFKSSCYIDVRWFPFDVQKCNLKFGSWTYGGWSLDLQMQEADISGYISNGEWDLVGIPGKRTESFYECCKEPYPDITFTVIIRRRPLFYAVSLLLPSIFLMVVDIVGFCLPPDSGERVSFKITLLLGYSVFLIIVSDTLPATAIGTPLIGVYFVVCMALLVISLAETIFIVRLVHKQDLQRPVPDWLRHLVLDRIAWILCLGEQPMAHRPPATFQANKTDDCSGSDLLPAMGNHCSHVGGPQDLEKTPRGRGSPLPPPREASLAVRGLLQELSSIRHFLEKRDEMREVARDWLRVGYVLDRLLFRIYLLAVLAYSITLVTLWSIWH
UniProt P22770: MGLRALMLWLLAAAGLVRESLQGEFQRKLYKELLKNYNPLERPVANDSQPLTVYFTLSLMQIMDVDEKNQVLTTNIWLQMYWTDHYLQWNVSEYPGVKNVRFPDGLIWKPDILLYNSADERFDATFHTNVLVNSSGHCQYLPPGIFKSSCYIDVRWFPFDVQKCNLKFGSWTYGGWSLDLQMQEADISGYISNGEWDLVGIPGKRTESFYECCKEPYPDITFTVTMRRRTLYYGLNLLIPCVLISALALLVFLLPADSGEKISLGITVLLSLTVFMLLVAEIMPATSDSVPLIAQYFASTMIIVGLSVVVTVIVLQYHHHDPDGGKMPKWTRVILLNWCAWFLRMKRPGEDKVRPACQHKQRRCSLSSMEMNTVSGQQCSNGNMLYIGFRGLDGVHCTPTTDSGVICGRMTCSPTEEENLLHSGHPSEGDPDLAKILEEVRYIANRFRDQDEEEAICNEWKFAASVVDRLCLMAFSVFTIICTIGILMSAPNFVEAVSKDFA
UniProt P23979: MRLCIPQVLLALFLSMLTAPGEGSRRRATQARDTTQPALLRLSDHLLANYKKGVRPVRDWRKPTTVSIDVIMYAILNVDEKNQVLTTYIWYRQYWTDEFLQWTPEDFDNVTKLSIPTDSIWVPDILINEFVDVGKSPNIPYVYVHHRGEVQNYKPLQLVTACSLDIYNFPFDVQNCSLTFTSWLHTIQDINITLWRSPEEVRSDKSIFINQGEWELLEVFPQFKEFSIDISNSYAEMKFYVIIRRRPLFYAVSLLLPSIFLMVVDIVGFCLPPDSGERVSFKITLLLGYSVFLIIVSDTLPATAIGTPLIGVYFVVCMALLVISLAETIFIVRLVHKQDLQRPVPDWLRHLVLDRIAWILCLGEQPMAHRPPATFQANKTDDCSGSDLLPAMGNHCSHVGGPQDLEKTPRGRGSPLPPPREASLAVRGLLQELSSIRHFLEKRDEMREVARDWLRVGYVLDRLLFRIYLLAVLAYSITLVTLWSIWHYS

SMILES strings stand for the structures.

The target in the test is α7 nACh receptor (UniProt P22770+P23979, M226I/T225I). As for the experimental part:
Human 5-HT3A subunit cDNA (Accession: P46098, kindly provided by J. Peters, Dundee University, UK) was cloned into pcDNA3.1 for expression in HEK293 cells. […] Cells were transiently transfected with either of these cDNA constructs using polyethyleneimine (PEI: 25 kDa, linear, powder, Polysciences Inc., Eppelheim, Germany). 30 μl of PEI (1 mg ml^−1), 5 μg cDNA and 1 ml DMEM were incubated for 10 min at room temperature, added drop wise to a 90 mm plate of 70–80% conﬂuent HEK293 cells, and incubated for 2–3 days before use.
Transfected HEK 293 cells were scraped into 0.6 ml of ice-cold 10 mM HEPES buffer (pH 7.4) and frozen. After thawing, they were washed with HEPES buffer, homogenised by trituration through a 25 gauge (0.5 mm) needle, and 50 μg of cell suspension incubated in 0.5 ml HEPES buffer containing different concentrations of radioligand. […] Equilibrium reactions were incubated on ice for at least 1 h and terminated by vacuum filtration onto Whatman GF/B filters wetted with 0.3% polyethyleneimine, followed by two rapid washes with 2.5 ml ice cold buffer. Radioactivity was measured by scintillation in Ultima Gold XR (Perkin Elmer, Waltham, MA) using a Tri-Carb 2100 TR (PerkinElmer) scintillation counter. Final counts were monitored to ensure that binding never exceeded 10% of the added concentrations of radioligands.
All data were analysed using GraphPad Prism v5. […]

Regarding `CN1C2CCCC1CC(NC(=O)c1nn(C)c3ccccc13)C2` (stereo not shown) [[^3H]granisetron], the saturation binding result was “could not be detected”.
